Membrane permeability of cyclic peptides

Source: CycPeptMPDB (Li et al. 2023), which took these values from Kelly et al. 2021, doi:10.1021/jacs.0c06115.

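Conditions beyond the assay type are not listed; see the original paper. Other peptides of the study may be missing here. Peptides that the database sets to -10, its floor, are left out.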

PAMPA is the parallel artificial membrane permeability assay, which has no cells and reads passive diffusion.
MDCK values are permeabilities across Madin-Darby canine kidney cell monolayers.
Values are log10 P with P in cm/s, so -5 is more permeable than -7.
"n/a" marks a cell with nothing listed here.

| PAMPA (log10 cm/s) | MDCK (log10 cm/s) | structure (SMILES) |
|---|---|---|
| -5.51 | n/a | CC(=O)N1CCC[C@@H]1C(=O)N(C)[C@H](CC(C)C)C(=O)N[C@@H]1C(=O)N(C)[C@H](CC(C)C)C(=O)N[C@H](CC(C)C)C(=O)N(C)[C@@H](CC(C)C)C(=O)N(C)[C@H](C)C(=O)N[C@@H](CC(C)C)C(=O)N2CCC[C@H]2C(=O)O[C@@H]1C |
| -5.35 | n/a | CC(=O)N1CCC[C@@H]1C(=O)N(C)[C@@H](CC(C)C)C(=O)N[C@@H]1C(=O)N(C)[C@H](CC(C)C)C(=O)N(C)[C@@H](CC(C)C)C(=O)N(C)[C@H](CC(C)C)C(=O)N(C)[C@@H](C)C(=O)N[C@H](CC(C)C)C(=O)N2CCC[C@H]2C(=O)O[C@@H]1C |
| -5.29 | n/a | CC(=O)N1CCC[C@@H]1C(=O)N(C)[C@@H](CC(C)C)C(=O)N[C@@H]1C(=O)N(C)[C@H](CC(C)C)C(=O)N(C)[C@H](CC(C)C)C(=O)N[C@H](CC(C)C)C(=O)N(C)[C@H](C)C(=O)N[C@@H](CC(C)C)C(=O)N2CCC[C@H]2C(=O)O[C@@H]1C |
| -5.31 | n/a | CC(=O)N[C@@H]1C(=O)N2CCC[C@H]2C(=O)N(C)[C@H](CC(C)C)C(=O)N(C)[C@@H](CC(C)C)C(=O)N(C)[C@@H](CC(C)C)C(=O)N(C)[C@@H](CC(C)C)C(=O)N(C)[C@@H](C)C(=O)N[C@@H](CC(C)C)C(=O)N2CCC[C@@H]2C(=O)O[C@@H]1C |
| -5.10 | -4.97 | CC(=O)N1CCC[C@H]1C(=O)N(C)[C@H](CC(C)C)C(=O)N[C@@H]1C(=O)N[C@H](CC(C)C)C(=O)N(C)[C@@H](CC(C)C)C(=O)N[C@H](CC(C)C)C(=O)N(C)[C@H](C)C(=O)N[C@@H](CC(C)C)C(=O)N2CCC[C@@H]2C(=O)O[C@@H]1C |
| -5.41 | n/a | CC(=O)N1CCC[C@@H]1C(=O)N(C)[C@@H](CC(C)C)C(=O)N[C@@H]1C(=O)N(C)[C@H](CC(C)C)C(=O)N[C@@H](CC(C)C)C(=O)N(C)[C@H](CC(C)C)C(=O)N(C)[C@@H](C)C(=O)N[C@@H](CC(C)C)C(=O)N2CCC[C@H]2C(=O)O[C@@H]1C |
| -6.27 | n/a | CC(=O)N1CCC[C@H]1C(=O)N(C)[C@H](CC(C)C)C(=O)N[C@@H]1C(=O)N[C@@H](CC(C)C)C(=O)N[C@@H](CC(C)C)C(=O)N(C)[C@H](CC(C)C)C(=O)N[C@@H](C)C(=O)N[C@H](CC(C)C)C(=O)N2CCC[C@H]2C(=O)O[C@@H]1C |
| -6.05 | n/a | CC(=O)N1CCC[C@H]1C(=O)N(C)[C@@H](CC(C)C)C(=O)N[C@@H]1C(=O)N(C)[C@@H](CC(C)C)C(=O)N(C)[C@@H](CC(C)C)C(=O)N(C)[C@H](CC(C)C)C(=O)N(C)[C@H](C)C(=O)N[C@H](CC(C)C)C(=O)N2CCC[C@H]2C(=O)O[C@@H]1C |
| -6.12 | n/a | CC(=O)N1CCC[C@@H]1C(=O)N(C)[C@@H](CC(C)C)C(=O)N[C@@H]1C(=O)N[C@H](CC(C)C)C(=O)N(C)[C@@H](CC(C)C)C(=O)N[C@@H](CC(C)C)C(=O)N[C@@H](C)C(=O)N[C@H](CC(C)C)C(=O)N2CCC[C@H]2C(=O)O[C@@H]1C |
| -6.13 | n/a | CC(=O)N1CCC[C@@H]1C(=O)N(C)[C@H](CC(C)C)C(=O)N[C@@H]1C(=O)N[C@@H](CC(C)C)C(=O)N(C)[C@@H](CC(C)C)C(=O)N(C)[C@H](CC(C)C)C(=O)N(C)[C@H](C)C(=O)N[C@@H](CC(C)C)C(=O)N2CCC[C@H]2C(=O)O[C@@H]1C |
| -5.93 | n/a | CC(=O)N1CCC[C@H]1C(=O)N(C)[C@@H](CC(C)C)C(=O)N[C@@H]1C(=O)N[C@H](CC(C)C)C(=O)N(C)[C@H](CC(C)C)C(=O)N(C)[C@@H](CC(C)C)C(=O)N(C)[C@@H](C)C(=O)N[C@H](CC(C)C)C(=O)N2CCC[C@@H]2C(=O)O[C@@H]1C |
| -5.82 | n/a | CC(=O)N1CCC[C@H]1C(=O)N(C)[C@@H](CC(C)C)C(=O)N[C@@H]1C(=O)N(C)[C@H](CC(C)C)C(=O)N[C@H](CC(C)C)C(=O)N(C)[C@@H](CC(C)C)C(=O)N(C)[C@H](C)C(=O)N[C@H](CC(C)C)C(=O)N2CCC[C@@H]2C(=O)O[C@@H]1C |
| -6.21 | n/a | CC(=O)N1CCC[C@H]1C(=O)N(C)[C@@H](CC(C)C)C(=O)N[C@@H]1C(=O)N[C@@H](CC(C)C)C(=O)N(C)[C@@H](CC(C)C)C(=O)N(C)[C@H](CC(C)C)C(=O)N[C@@H](C)C(=O)N[C@H](CC(C)C)C(=O)N2CCC[C@H]2C(=O)O[C@@H]1C |
| -5.68 | n/a | CC(=O)N1CCC[C@H]1C(=O)N(C)[C@@H](CC(C)C)C(=O)N[C@@H]1C(=O)N(C)[C@@H](CC(C)C)C(=O)N(C)[C@H](CC(C)C)C(=O)N(C)[C@@H](CC(C)C)C(=O)N(C)[C@@H](C)C(=O)N[C@H](CC(C)C)C(=O)N2CCC[C@@H]2C(=O)O[C@@H]1C |
| -8.70 | n/a | CC(=O)N1CCC[C@@H]1C(=O)N(C)[C@H](CC(C)C)C(=O)N[C@@H]1C(=O)N[C@H](CC(C)C)C(=O)N[C@H](CC(C)C)C(=O)N[C@H](CC(C)C)C(=O)N[C@H](C)C(=O)N[C@@H](CC(C)C)C(=O)N2CCC[C@@H]2C(=O)O[C@@H]1C |
| -6.11 | n/a | CC(=O)N1CCC[C@H]1C(=O)N(C)[C@H](CC(C)C)C(=O)N[C@@H]1C(=O)N(C)[C@@H](CC(C)C)C(=O)N[C@H](CC(C)C)C(=O)N(C)[C@@H](CC(C)C)C(=O)N(C)[C@@H](C)C(=O)N[C@H](CC(C)C)C(=O)N2CCC[C@@H]2C(=O)O[C@@H]1C |
| -5.42 | n/a | CC(=O)N1CCC[C@@H]1C(=O)N(C)[C@@H](CC(C)C)C(=O)N[C@@H]1C(=O)N[C@H](CC(C)C)C(=O)N(C)[C@H](CC(C)C)C(=O)N(C)[C@@H](CC(C)C)C(=O)N(C)[C@@H](C)C(=O)N[C@H](CC(C)C)C(=O)N2CCC[C@H]2C(=O)O[C@@H]1C |
| -5.40 | n/a | CC(=O)N1CCC[C@H]1C(=O)N(C)[C@@H](CC(C)C)C(=O)N[C@@H]1C(=O)N(C)[C@H](CC(C)C)C(=O)N(C)[C@@H](CC(C)C)C(=O)N(C)[C@H](CC(C)C)C(=O)N(C)[C@@H](C)C(=O)N[C@H](CC(C)C)C(=O)N2CCC[C@@H]2C(=O)O[C@@H]1C |
| -5.46 | n/a | CC(=O)N1CCC[C@@H]1C(=O)N(C)[C@@H](CC(C)C)C(=O)N[C@@H]1C(=O)N[C@H](CC(C)C)C(=O)N(C)[C@@H](CC(C)C)C(=O)N(C)[C@H](CC(C)C)C(=O)N(C)[C@@H](C)C(=O)N[C@H](CC(C)C)C(=O)N2CCC[C@H]2C(=O)O[C@@H]1C |
| -6.73 | n/a | CC(=O)N1CCC[C@@H]1C(=O)N(C)[C@H](CC(C)C)C(=O)N[C@@H]1C(=O)N[C@@H](CC(C)C)C(=O)N(C)[C@H](CC(C)C)C(=O)N[C@H](CC(C)C)C(=O)N(C)[C@H](C)C(=O)N[C@@H](CC(C)C)C(=O)N2CCC[C@H]2C(=O)O[C@@H]1C |
| -5.73 | n/a | CC(=O)N1CCC[C@@H]1C(=O)N(C)[C@H](CC(C)C)C(=O)N[C@@H]1C(=O)N[C@@H](CC(C)C)C(=O)N(C)[C@@H](CC(C)C)C(=O)N(C)[C@H](CC(C)C)C(=O)N(C)[C@@H](C)C(=O)N[C@@H](CC(C)C)C(=O)N2CCC[C@@H]2C(=O)O[C@@H]1C |

Excerpt, the final 3 entries:

structure (SMILES)	PAMPA (log10 cm/s)	MDCK (log10 cm/s)
CC(=O)N1CCC[C@@H]1C(=O)N(C)[C@@H](CC(C)C)C(=O)N[C@@H]1C(=O)N[C@H](CC(C)C)C(=O)N(C)[C@@H](CC(C)C)C(=O)N(C)[C@H](CC(C)C)C(=O)N(C)[C@@H](C)C(=O)N[C@H](CC(C)C)C(=O)N2CCC[C@H]2C(=O)O[C@@H]1C	-5.46	n/a
CC(=O)N1CCC[C@@H]1C(=O)N(C)[C@H](CC(C)C)C(=O)N[C@@H]1C(=O)N[C@@H](CC(C)C)C(=O)N(C)[C@H](CC(C)C)C(=O)N[C@H](CC(C)C)C(=O)N(C)[C@H](C)C(=O)N[C@@H](CC(C)C)C(=O)N2CCC[C@H]2C(=O)O[C@@H]1C	-6.73	n/a
CC(=O)N1CCC[C@@H]1C(=O)N(C)[C@H](CC(C)C)C(=O)N[C@@H]1C(=O)N[C@@H](CC(C)C)C(=O)N(C)[C@@H](CC(C)C)C(=O)N(C)[C@H](CC(C)C)C(=O)N(C)[C@@H](C)C(=O)N[C@@H](CC(C)C)C(=O)N2CCC[C@@H]2C(=O)O[C@@H]1C	-5.73	n/a